The source of these data is patent US12655398B2, “Multipartite luciferase” (Promega Corporation, priority 2018, dated 2026).

Assay [1] relates to LgTrip 3546 and SmTrip10 pep86. Put plainly: SmTrip9 peptide titration (Kd, Bmax) with LgTrip 3546 and constant SmTrip10 peptide. The class given is binding. Particulars: constant SmTrip10 pep86, LgTrip 3546. Here is the method: (§1) LgTrip 3546 (SEQ ID NO: 51) was diluted to 200 nM in TBS+0.01% BSA+0.01% Tergitol, and serial dilutions were prepared (100 ul into 900 ul) in TBS+0.01% BSA+0.01% Tergitol. 2 nM polypeptide samples were diluted 1:10 into TBS+0.01% BSA+0.01% Tergitol (500 into 4.5 ml).
A 2× dilution series was prepared of each SmTrip9 peptide in TBS+0.01% BSA+0.01% Tergitol+100 uM of SmTrip10 pep86 (SEQ ID NO: 25) starting at 20 uM. 50 ul of diluted LgTrip 3546 (SEQ ID NO: 51) was combined with 50 ul of each peptide titration. Reactions were incubated for 10 minutes at room temperature. 100 μl of TBS+0.01% BSA+0.01% Tergitol+20 uM furimazine was added, the reaction was incubated for 10 more minutes, and read on a GMM+.
Experiments were conducted during development of embodiments herein to determine the how the affinity of β9-like (e.g., SmTrip9) peptides are impacted in the presence of constant concentrations of various β10-like (e.g., SmTrip10) peptides with LgTrip 3546 (SEQ ID NO: 51) (FIG. 29). […] The reactions were incubated for 10 minutes at room temperature, 100 μl of TBS+0.01% BSA+0.01% Tergitol+20 uM furimazine was added, and the reactions were incubated for another 10 minutes and then read on GMM+. […]

In a further assay the test system is LgTrip 3546. Put plainly: SmTrip10 pep86 (HiBiT) titration with constant SmTrip9 peptides. The format is binding. Particulars: SmTrip10 pep86 titration with saturating SmTrip9 variant. As to the method: as §1
A 2× dilution series was prepared of SmTrip10 pep86 (SEQ ID NO: 25) in TBS+0.01% BSA+0.01% Tergitol+20 uM of SmTrip9-like peptides starting at 100 uM. 50 ul of diluted LgTrip 3546 was combined with 50 ul of each peptide titration. Reactions were incubated for 10 minutes at room temperature. 100 μl of TBS+0.01% BSA+0.01% Tergitol+20 uM furimazine was added, reaction was incubated for 10 more minutes, and then read on GMM+.
LgTrip 3546 (SEQ ID NO: 51) polypeptide was diluted to 0.2 nM in TBS+0.01% BSA+0.01% Tergitol. 20 uM SmTrip9-like peptide solutions were prepared in TBS+0.01% BSA+0.01% Tergitol for each SmTrip9-like peptide to be tested. 100 uM solutions of SmTrip10 pep86 was added to each SmTrip9-like peptide solution. 2× serial dilutions were prepared of SmTrip10 pep86 using each SmTrip9-like peptide solution as a diluent. Peptide dilutions and LgTrip 3546 solution were combined, 1:1, and incubated for 10 minutes. TBS+0.01% BSA+0.01% Tergitol+20 uM furimazine detection reagent was added (1:1), and luminescence was detected.
LgTrip 3546 (SEQ ID NO: 51) polypeptide was diluted to 0.2 nM in TBS+0.01% BSA+0.01% Tergitol. 20 uM SmTrip9-like peptide solutions were prepared in TBS+0.01% BSA+0.01% Tergitol for SmTrip9-like peptide to be tested. 100 uM solutions of SmTrip10 pep86 (SEQ ID NO: 25) was added each SmTrip9-like solution. 2× serial dilutions were prepared of SmTrip10 pep86 using each SmTrip9-like peptide solution as a diluent. Peptide dilutions and LgTrip 3546 solution were combined 1:1 and incubated for 10 minutes. TBS+0.01% BSA+0.01% Tergitol+20 uM furimazine detection reagent was added (1:1), and luminescence was detected.
LgTrip 3546 (SEQ ID NO: 51) was diluted to 0.2 nM in TBS+0.01% BSA+0.01% Tergitol. 20 uM SmTrip9-like peptide solutions were prepared in TBS+0.01% BSA+0.01% Tergitol. SmTrip10 pep86 was added to 100 uM in each SmTrip9-like peptide solution. 2× serial dilutions of each SmTrip 10 pep86 (SEQ ID NO: 25) were prepared using the SmTrip9-like peptide solutions as a diluent. Peptide dilutions were combined with LgTrip 3546 (SEQ ID NO: 51) solution 1:1 and incubated for 10 minutes. TBS+0.01% BSA+0.01% Tergitol+20 uM Furimazine (Fz) detection reagent was added, 1:1. Luminescence was read at 10 min.

As to DGSMLFRVTINS [SmTrip9 pep293], the “Affinity of SmTrip9 peptide compared to SmTrip9 pep286” value in assay [1] is “decrease in affinity compared to SmTrip9 pep286”. Moreover, the “Effect of SmTrip9 peptide on affinity of SmTrip10 pep86 for LgTrip 3546” value (“Effect of SmTrip9 peptide” below) in the assay with LgTrip 3546 is listed as “decrease affinity of SmTrip10 pep86”.
In the case of DGSMLFRVTINSV [SmTrip9 pep298], the “Effect of SmTrip9 peptide” value in the assay with LgTrip 3546 is listed as “decrease the affinity of SmTrip10 pep86”.
With PDGSMLFRVTINS [SmTrip9 pep294], in assay [1], the “Affinity of SmTrip9 peptide compared to SmTrip9 pep286” value is on record as “decrease in affinity compared to SmTrip9 pep286”. Moreover, the “Effect of SmTrip9 peptide” value in the assay on LgTrip 3546 is reported as “decrease affinity of SmTrip10 pep86”.
For the sequence PDGSMLFRVTINSV [SmTrip9 pep299], in the assay with LgTrip 3546, the “Effect of SmTrip9 peptide” value is “decrease the affinity of SmTrip10 pep86”.
